Test system: Vero cells
Experiment: Cytotoxicity test (MTT) on Vero cells
Type: cell-based, African green monkey
Details: 72 h
Method: Cytotoxicity test: the drugs were diluted according to the concentrations shown in table 1-1 for determination of cytotoxicity. […] In addition, 6 wells were set up as normal control group (without drugs) while another 6 pores as blank control group (medium only). Cells were grown in a 37° C. incubator under 5% CO2. […] After 72 h, 20 μL MTT solution (5 mg·mL^−1) was added into each well to continue incubation for 4 h. The culture medium in each well was sucked and discarded, 100 μL DMSO was added to each well. Then the culture was shaken for 5 min, measured OD value at 492 nm to calculate the cell survival ratio. The cell survival ratio was analyzed using a Probit regression model in SPSS 18.0 statistical software, and the maximal nontoxic concentration (TC0) and median toxic concentration (TC50) of drugs against Vero cells were calculated.

NC(=O)c1ncn([C@@H]2O[C@H](CO)[C@@H](O)[C@H]2O)n1 [Ribavirin]
maximal non-toxic concentration (TC0): 0.065 g/L

— patent US10881679B2, “Application of a phillyrin/phillygeninin composition in preparing a medicine or health care product for alleviating or/and treating viral diseases, and medicine or health care product for treating viral diseases” (priority 2014, dated 2021)
